This passage reports EC50 results from patent US8435762B2, “Chimeric ligand-gated ion channels and methods of use thereof” (Howard Hughes Medical Institute, priority 2008, dated 2013).

Amino acid sequences for entries named in this document (tags omitted). Chains listed by the source or under a name are the forms on record and can include a tag or linker. Residues count along the entry.
UniProt P36544, 23-229 with tags or gaps M226I/T225I: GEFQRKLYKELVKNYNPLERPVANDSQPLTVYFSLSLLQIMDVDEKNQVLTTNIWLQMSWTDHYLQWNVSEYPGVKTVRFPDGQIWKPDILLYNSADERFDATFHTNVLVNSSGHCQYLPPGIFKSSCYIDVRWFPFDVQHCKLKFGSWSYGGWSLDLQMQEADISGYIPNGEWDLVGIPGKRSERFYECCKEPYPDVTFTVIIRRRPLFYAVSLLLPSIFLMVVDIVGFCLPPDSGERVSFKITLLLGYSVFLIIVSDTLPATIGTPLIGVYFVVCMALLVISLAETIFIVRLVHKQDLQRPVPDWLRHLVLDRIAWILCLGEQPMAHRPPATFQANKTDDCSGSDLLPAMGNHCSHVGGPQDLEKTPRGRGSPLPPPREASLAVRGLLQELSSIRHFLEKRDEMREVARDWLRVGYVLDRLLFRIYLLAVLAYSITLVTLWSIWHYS
UniProt P36544, 23-229 with tags or gaps M226I/Q79G/T225I: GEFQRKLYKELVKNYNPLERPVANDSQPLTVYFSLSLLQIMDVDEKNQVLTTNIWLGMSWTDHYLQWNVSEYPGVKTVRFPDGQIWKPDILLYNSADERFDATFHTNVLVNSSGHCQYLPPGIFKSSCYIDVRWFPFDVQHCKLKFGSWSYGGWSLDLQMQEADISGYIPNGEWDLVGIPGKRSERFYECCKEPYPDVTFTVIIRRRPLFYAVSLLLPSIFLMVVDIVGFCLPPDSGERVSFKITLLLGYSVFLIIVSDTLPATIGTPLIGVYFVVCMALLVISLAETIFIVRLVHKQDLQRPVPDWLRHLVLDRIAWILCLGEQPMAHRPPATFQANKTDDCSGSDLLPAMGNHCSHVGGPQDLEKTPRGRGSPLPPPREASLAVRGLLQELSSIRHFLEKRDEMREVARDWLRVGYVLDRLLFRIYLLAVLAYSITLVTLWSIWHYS
UniProt P36544, 23-229 with tags or gaps L141F/M226I/T225I: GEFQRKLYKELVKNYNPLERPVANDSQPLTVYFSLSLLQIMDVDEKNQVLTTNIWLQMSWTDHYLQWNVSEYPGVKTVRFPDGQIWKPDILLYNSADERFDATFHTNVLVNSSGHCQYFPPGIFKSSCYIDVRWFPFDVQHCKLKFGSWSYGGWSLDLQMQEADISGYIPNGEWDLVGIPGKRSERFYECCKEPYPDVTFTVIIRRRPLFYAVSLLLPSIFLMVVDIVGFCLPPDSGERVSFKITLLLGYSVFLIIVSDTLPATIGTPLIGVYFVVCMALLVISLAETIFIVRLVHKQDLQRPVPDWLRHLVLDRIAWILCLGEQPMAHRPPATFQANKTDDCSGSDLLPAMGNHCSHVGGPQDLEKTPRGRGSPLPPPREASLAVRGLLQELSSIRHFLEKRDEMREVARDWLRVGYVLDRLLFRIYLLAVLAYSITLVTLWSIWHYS

Test in all cases: fluorescence membrane potential (MP) assay, HEK 293 cells
Common to all, as to format: cell-based, human/mouse
What all share (conditions): read-out: EC50-MP, IPD 5HT3, value (s.e.m.)

One experiment addresses α7-5HT3 Q79G (Homo sapiens, UniProt P36544, M226I/Q79G/T225I).
For a further experiment, the target named is α7-5HT3 L141F (Homo sapiens, UniProt P36544, L141F/M226I/T225I).
For experiment [1], the target named is α7-5HT3 wt chimeric receptor (Homo sapiens, UniProt P36544, M226I/T225I).

Some results are limits rather than exact numbers.

The EC50 is the concentration giving half of the maximal effect. `CSc1nccc(N2CC3CC2CN3)n1` (stereo not drawn): the EC50 on α7-5HT3 Q79G was > 100 µM; at α7-5HT3 L141F it was 0.1 µM; in experiment [1], > 100 µM.

Consider `c1ccc2nc3c(cc2c1)N1CCC3CC1`, for which the figures for the EC50 (at α7-5HT3 Q79G; at α7-5HT3 L141F; in experiment [1]) were > 100 µM, 10 µM and > 100 µM, respectively.
